Measurements from patent US20260000771A1, “PSMA-TARGETING LINEAR CONJUGATES COMPRISING POLYETHYLENEIMINE AND POLYETHYLENE GLYCOL AND POLYPLEXES COMPRISING THE SAME” (TARGIMMUNE THERAPEUTICS AG, priority 2022, published 2026).

How the values were obtained:
[1] = Polyplex size distribution by dynamic light scattering (DLS); type: physicochemical; settings: pH 7.2
[2] = Polyplex ζ-potential (PALS/ELS); type: physicochemical; settings: pH 7.2

Row | Substance | DLS (nm), DTS1070 [1] [nm] | PDI, DTS1070 [1] | ζ-pot (mV), DTS1070 [2] [mV]
1 | Me-LPEI-l-[N3:DBCO]-PEG36-DUPA | 140 | 0.132 | 28.2
2 | Me-LPEI-l-[N3: BCN]-PEG36-DUPA | 130 | 0.134 | 26.6
